Test results: PMC8484483 (Scientific Reports, 2021)

By UniProt entry, the sequences of proteins in these tests, tags left out. Residues count along the entry.
UniProt P28908, 19-595: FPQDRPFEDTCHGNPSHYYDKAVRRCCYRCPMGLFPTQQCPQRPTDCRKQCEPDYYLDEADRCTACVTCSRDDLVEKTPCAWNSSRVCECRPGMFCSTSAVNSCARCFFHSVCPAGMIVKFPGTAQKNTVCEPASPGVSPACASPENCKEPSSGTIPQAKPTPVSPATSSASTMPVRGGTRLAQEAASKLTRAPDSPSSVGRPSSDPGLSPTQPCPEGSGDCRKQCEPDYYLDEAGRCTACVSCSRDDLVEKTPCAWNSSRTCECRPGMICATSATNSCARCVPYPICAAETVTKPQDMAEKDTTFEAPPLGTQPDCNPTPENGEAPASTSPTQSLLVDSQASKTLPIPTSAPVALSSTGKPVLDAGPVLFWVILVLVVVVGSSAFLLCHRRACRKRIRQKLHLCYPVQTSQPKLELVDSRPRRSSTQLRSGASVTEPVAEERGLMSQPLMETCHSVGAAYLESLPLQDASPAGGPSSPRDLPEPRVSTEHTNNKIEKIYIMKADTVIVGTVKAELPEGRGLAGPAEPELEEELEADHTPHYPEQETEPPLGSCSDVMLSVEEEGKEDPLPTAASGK
UniProt P20333, 23-461: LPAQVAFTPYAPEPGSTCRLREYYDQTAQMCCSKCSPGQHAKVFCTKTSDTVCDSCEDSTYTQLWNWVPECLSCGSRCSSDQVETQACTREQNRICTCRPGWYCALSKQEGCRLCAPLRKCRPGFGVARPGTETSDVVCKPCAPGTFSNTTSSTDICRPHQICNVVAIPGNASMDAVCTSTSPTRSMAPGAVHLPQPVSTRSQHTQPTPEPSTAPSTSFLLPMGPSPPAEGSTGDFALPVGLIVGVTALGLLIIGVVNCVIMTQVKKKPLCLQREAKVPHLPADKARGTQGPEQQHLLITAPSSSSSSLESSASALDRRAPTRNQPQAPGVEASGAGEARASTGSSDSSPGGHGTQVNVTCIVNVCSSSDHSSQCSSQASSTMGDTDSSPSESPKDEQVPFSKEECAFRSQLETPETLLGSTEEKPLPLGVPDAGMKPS

Assays:
[1] = target: T1, CD30 on CD30-expressing cells (Homo sapiens, UniProt P28908); test: flow cytometry on cells; antigen-expressing Ramos-Blue cells incubated with mAbs or BsAb in PBS, 5% fetal bovine serum, 0.1% sodium azide, 1 h on ice; detected with R-PE anti-human IgG Fc-gamma; details: one partner purified
T1 construct: CD30 expressed on CD30-RB cells; construct not described; the methods describe only how the TNFR2 cells were made; also called CD30-RB; source: CD30-expressing cells (CD30-RB), on cells

[2] = target: T2, TNFR2 on TNFR2-transfected Ramos Blue cells (human, UniProt P20333); test: as above; details: one partner purified
T2 construct: for the full-length cDNA no species is named; also called TNFR2-RB; TNFR2-expressing cells; source: Ramos-Blue cells, stably transfected (blasticidin, sorting, cloning), on cells

binding result [1]	binding result [2]	Binder
binds		anti-CD30 T104, human chimeric monoclonal antibody (antibody, V domains shown) VH: QIQLVQSGPELKKPGETVKISCKASGYTFTDYSMHWVKQAPGKGLKWMGWINTETGEPTYADDFKGRFAFSLETSASTAYLQINNLKNEDTATYFCTEGYVFDFWGQGTTLTVSS VL: DILLTQSPAILSVSPGERVSFSCRASRSIGTSIHWYQQRTNGSPRLLINYASESISGIPSRFSGSGSGTDFTLSINSVESEDIADYYCQQSNSWPLTFGAGTKLELK
	binds	anti-TNFR2 TR109, human chimeric monoclonal antibody (antibody, V domains shown) VH: QVQLKESGPGLVAPSQSLSITCTVSGFSLTVYGVNWVRQPPGKGLEWLGMIWGDGSTAYNSALKSRLTITKDNSKTQVFLKMNSLQTDDTARYYCARDGRRYALDYWGQGTSVTVSS VL: DIVLTQSPTSLAVSLGQRATISCRASESVDSYGDSFLHWYQQKPGQPPILLIYRASNLDSGIPARFSGSGSRTDFTLTINPVEADDVATYYCQQSNEDPYTFGGGTKLEIK
